We go through one compound from paper PMC10709440, “High-throughput ligand profile characterization in novel cell lines expressing seven heterologous insect olfactory receptors for the detection of volatile plant biomarkers” (Scientific Reports, 2023).

Structures are written as SMILES. Read-outs that look alike come from different tables or passages of the source.

The test system of one assay is OR47a. Also on record: method as in earlier work. The following applies: DoOR database value; ref DoOR; cited from earlier work.
For the next assay, the target named is T1, Drosophila OR10a (Drosophila melanogaster, UniProt Q9VYZ1).
T1 construct: expressed in transfected cells
T1 sequence (Q9VYZ1 1-406): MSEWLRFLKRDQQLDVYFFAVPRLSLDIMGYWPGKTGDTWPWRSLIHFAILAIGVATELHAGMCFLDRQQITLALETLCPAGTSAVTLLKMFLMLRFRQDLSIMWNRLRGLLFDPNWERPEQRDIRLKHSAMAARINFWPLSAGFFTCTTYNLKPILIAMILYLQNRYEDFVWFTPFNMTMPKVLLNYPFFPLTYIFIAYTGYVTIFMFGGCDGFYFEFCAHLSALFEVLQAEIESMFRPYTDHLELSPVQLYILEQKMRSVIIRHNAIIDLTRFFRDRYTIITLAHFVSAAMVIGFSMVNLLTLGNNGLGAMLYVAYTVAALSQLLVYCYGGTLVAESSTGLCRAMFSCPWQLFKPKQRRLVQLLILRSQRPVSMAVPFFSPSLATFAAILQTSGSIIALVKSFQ
T1 sequence (Q9VNB5 1-486 partner): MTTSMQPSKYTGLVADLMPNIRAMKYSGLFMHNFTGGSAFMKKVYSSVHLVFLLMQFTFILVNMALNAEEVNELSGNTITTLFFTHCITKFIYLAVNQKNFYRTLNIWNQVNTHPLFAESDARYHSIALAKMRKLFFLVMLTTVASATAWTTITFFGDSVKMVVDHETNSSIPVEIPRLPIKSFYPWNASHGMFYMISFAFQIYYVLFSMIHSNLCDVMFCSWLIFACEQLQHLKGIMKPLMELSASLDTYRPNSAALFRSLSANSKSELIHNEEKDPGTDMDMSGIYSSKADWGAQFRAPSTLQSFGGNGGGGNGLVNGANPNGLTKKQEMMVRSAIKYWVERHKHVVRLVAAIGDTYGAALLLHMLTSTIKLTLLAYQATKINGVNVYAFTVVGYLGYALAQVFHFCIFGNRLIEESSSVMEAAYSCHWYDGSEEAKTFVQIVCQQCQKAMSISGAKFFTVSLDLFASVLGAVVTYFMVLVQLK
Description: Calcium ion fluorescence (GCaMP6) assay, OR10a stable HEK293 cell line. It is filed as cell-based. The following applies: for DF norm AVERAGE OR10a: normalized fluorescence change, values below 0.05 threshold given as 0. The procedure:
(§1) These VUAA1 normalized ∆F values were used to compare the different receptors and ligands.
(§2) The concentration-dependent effect of the reference ligands on their cognate cell lines was examined in more detail. Twelve different ligand concentrations were measured on each cell line in an overall 0.01 μM to 100 μM concentration range with 5 repetitions with three technical replicates each time.
(§3) Twelve thousand to 18,000 cells were plated into each well of a black wall, transparent bottom 384-well microplate (Greiner) 48 h or 72 h before the measurements and were simultaneously treated with 1 μg/mL doxycycline. […] The plate has 24 columns, thus we could record responses in up to eight different cell lines in each plate. On the day of the experiment, the growth medium was replaced with 20 µL assay buffer/well (140 mM NaCl, 5 mM KCl, 2 mM CaCl2, 1 mM MgCl2, 5 mM HEPES-Na, 20 mM glucose, pH 7.3, 340 mOsm). […] Baseline fluorescence (F0) was recorded for 5 s, after which 7 µL VOC buffer (140 mM NaCl, 5 mM KCl, 2 mM CaCl2, 1 mM MgCl2, 5 mM HEPES-Na, 31 mM glucose, 0.1% DMSO, pH 7.3, 340 mOsm) was injected into each well in one row and the fluorescence response was recorded for an additional 30 s, at a rate of one read/sec. VOC solutions (VOC buffer with 4× concentration of the final measured VOC concentration, 9 µL/well was injected) were measured on the same wells in a second round with the same protocol. Each individual concentration of a specific VOC sample was recorded in three wells for the same cell line on the same microplate. The raw data were exported in xls file format, F0 and FMAX values, and the fluorescence intensity changes (∆F) were calculated in Excel (Microsoft) (Supplementary file Data summary.xlsx) using the following equation: ΔF=FMAX-F0/F0 (see also Fig. 1C). On each plate, we recorded the response of each cell line to 50 µM VUAA1. The average of these ∆F values of each cell line were used to calculate the VUAA1-normalized values for the rest of the plate, by dividing VOC response ∆F values by the average VUAA1 response ∆F value of the corresponding OR cell line. Each VOC-OR combination was measured three times as technical replicates. […] The average of these replicates were used as one ∆F and VUAA1-normalized ∆F in the following analysis.
(§4) In the next rows we tested the reference VOCs (or other VOCs known to activate the corresponding cell lines), in order to test if all cell lines are responsive. The remaining rows were used to test VOCs with unknown effect.
(§5) The recorded FMAX, F0, ∆F, VUAA1-normalized ∆F values, as well as the OR name, the name of the tested sample, and the final concentration for each well were copied into supplementary file Data summary.xlsx, that was used to summarize all the plates recorded. Here, the averages of the measurements were calculated for each receptor-VOC-concentration combination.

Another assay has as its target T2, Drosophila OR13a (Drosophila melanogaster, UniProt Q9VXL0).
T2 construct: expressed in transfected cells
T2 sequence (Q9VXL0 1-418): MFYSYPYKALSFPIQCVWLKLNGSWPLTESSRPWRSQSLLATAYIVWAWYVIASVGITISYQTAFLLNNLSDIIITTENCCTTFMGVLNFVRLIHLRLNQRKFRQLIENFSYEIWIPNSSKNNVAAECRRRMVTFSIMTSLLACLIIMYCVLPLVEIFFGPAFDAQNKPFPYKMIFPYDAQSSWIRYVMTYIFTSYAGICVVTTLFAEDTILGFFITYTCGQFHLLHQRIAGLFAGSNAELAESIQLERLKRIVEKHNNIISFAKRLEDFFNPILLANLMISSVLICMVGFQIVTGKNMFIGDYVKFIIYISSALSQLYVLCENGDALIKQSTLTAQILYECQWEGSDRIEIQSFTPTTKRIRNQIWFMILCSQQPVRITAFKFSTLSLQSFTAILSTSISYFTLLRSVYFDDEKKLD
T2 sequence (Q9VNB5 1-486 partner): T1 sequence (Q9VNB5 1-486 partner)
As to the kind of experiment: Calcium ion fluorescence (GCaMP6) assay, OR13a stable HEK293 cell line. The following applies: for DF norm AVERAGE OR13a: normalized fluorescence change, values below 0.05 threshold given as 0. It is filed as cell-based. The procedure:
as §1, §2, §3, §4, §5

In another assay the test system is OR10a. Also on record: method as in earlier work. The following applies: DoOR database value; ref DoOR; cited from earlier work.
Where [1] appears, read: HEK293, read-out: OR10a Average response (VUAA1-normalized).
The mark [2] stands for this setting: HEK293, read-out: OR10a response (VUAA1-normalized response).
The mark [3] stands for this setting: HEK293, read-out: OR13a Average response (VUAA1-normalized).
[4] abbreviates: HEK293, read-out: OR13a response (VUAA1-normalized response).

For the compound `CC(=O)CCC=C(C)C` [6-methyl-5-hepten-2-one], the “OR47a DoOR response” value in the assay with OR47a was 0.10. Also, the activation at 1 µM on Drosophila OR10a (setting [1]), on Drosophila OR10a (setting [2]), at Drosophila OR13a (setting [3]) and at Drosophila OR13a (setting [4]) was 0% in each case. The activation at 10 µM on Drosophila OR10a (setting [1]), at Drosophila OR10a (setting [2]), at Drosophila OR13a (setting [3]) and on Drosophila OR13a (setting [4]) was 0% in each case. In addition, the activation at 100 µM on Drosophila OR10a (setting [1]) was 5%; at Drosophila OR10a (setting [2]), 0%; at Drosophila OR13a (setting [3]) it was 0.768%; on Drosophila OR13a (setting [4]), 0%. Further, the “DF norm AVERAGE OR10a” value on Drosophila OR10a (concentration 1), at Drosophila OR10a (concentration 10) and at Drosophila OR10a (concentration 100) was 0 throughout. For the same compound, the “DF norm AVERAGE OR13a” value on Drosophila OR13a (concentration 1), at Drosophila OR13a (concentration 10) and at Drosophila OR13a (concentration 100) was 0 each time. Also, the “OR10a DoOR response” value with OR10a is 0.023.
